Experimental data taken from patent US7754772B2, “Nitrosated nonsteroidal antiinflammatory compounds, compositions and methods of use” (NicOx, S.A., priority 2002, dated 2010).
Some compounds may have been tested in ways that are not shown here.

Test system: Male Sprague-Dawley rats, carrageenan paw edema
Assay: rat paw edema test (carrageenan), antiinflammatory activity
Conditions: oral gavage one hour prior to subplantar carrageenan, paw volume three hours later, expressed as ratio (Vehicle = 1)

Phosphonomethyl (2S)-2-(6-methoxy(2-naphthyl))propanoate 3-(nitrooxy) propylamine nitric acid salt
Relative Activity Antiinflammation: 0.85
